BindingDB's records for doi:10.7270/Q2X34VWJ (Nmmlsc, 2009)

By UniProt entry, the sequences of proteins in these tests, tags left out.
UniProt P18067, whole entry: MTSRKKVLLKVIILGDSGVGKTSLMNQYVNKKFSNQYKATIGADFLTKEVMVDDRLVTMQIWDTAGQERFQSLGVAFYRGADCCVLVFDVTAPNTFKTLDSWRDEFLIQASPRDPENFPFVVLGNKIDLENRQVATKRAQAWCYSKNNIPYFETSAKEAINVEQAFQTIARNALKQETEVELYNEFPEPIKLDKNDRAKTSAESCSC

Molecular target: Ras-related protein Rab-7a (Canis lupus familiaris, UniProt P18067)
Assay: Rab7 GTP binding inhibitors, further analogs, SAR follow-up, biochemical, additional analogs, wildtype, multiplex bead flow cytometry (AID 2036)

Compound: COc1ccc2cc([C@H](C)C(=O)O)ccc2c1 [UNM-0000306098]
- EC50: 30 µM

Compound: COc1ccc2cc([C@@H](C)C(=O)O)ccc2c1 [sodium;(2R)-2-(6-methoxy-2-naphthalenyl)propanoate]
- EC50: 1.33 µM
